{"source": "paper PMC6559209", "about": "“Functional assessment of hydrophilic domains of late embryogenesis abundant proteins from distant organisms” (Microbial Biotechnology, 2019)", "molecular_target": "lactate dehydrogenase (LDH)", "assay": "MST; HD labelled with RED-NHS at 2 uM; label-free LDH titrated, diluted from 71 uM; binding buffer 20 mM HEPES, 150 mM KCl, pH 7.4 (the legend says phosphate buffer); normal conditions; Monolith NT.115, 20% LED, 60% MST power", "conditions": "both partners purified", "data": [{"binder": "DrHD, hydrophilic domain of DrG3LEA (Deinococcus radiodurans group 3 LEA protein) (domain or fragment, Deinococcus radiodurans R1, UniProt Q9RV58 104-245, looked up, labelled with the Monolith NT Protein Labeling Kit RED-NHS, Cloned between BamHI and XhoI of pET28a; also called HD of DrG3LEA) VADTAKDAGQNVGQNVKREAADLADQAKDKAQDVKADVSKAADQAKDKAQDVAQNVQAGAQQAAANVKDKVQDVKADASKAADQAKDKAQDVAQNVKQGAQQAASDAKDKVQDVKADASRAADQAKDKAQDVAQNVKQSAQD", "values": [{"measurement": "Kd", "value": "180 ± 10", "unit": "nM"}]}]}
